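Where inhibition never reached the appropriate level, the endpoint shown equals the highest concentration tested. Otherwise, values were interpolated linearly from a five-concentration, 48-hour dose response in 96-well plates. GI50 is the concentration that inhibits growth by half. TGI marks complete inhibition of growth.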
Columns and labels:
Assay in all cases: NCI-60 cell line screen, 48 h
SK-MEL-5 melanoma = tested on: SK-MEL-5 melanoma
RPMI-8226 leukemia = tested on: RPMI-8226 leukemia
786-0 renal = tested on: 786-0 renal
IGROV1 ovarian = tested on: IGROV1 ovarian
NCI-H522 lung = tested on: NCI-H522 lung
SW-620 colon = tested on: SW-620 colon
U251 CNS = tested on: U251 CNS
MALME-3M melanoma = tested on: MALME-3M melanoma
K-562 leukemia = tested on: K-562 leukemia
SK-MEL-2 melanoma = tested on: SK-MEL-2 melanoma
T-47D breast = tested on: T-47D breast
DU-145 prostate = tested on: DU-145 prostate
UACC-62 melanoma = tested on: UACC-62 melanoma
NCI-H23 lung = tested on: NCI-H23 lung
MCF7 breast = tested on: MCF7 breast
NCI-H322M lung = tested on: NCI-H322M lung
CAKI-1 renal = tested on: CAKI-1 renal
OVCAR-8 ovarian = tested on: OVCAR-8 ovarian
ACHN renal = tested on: ACHN renal
LOX IMVI melanoma = tested on: LOX IMVI melanoma
OVCAR-3 ovarian = tested on: OVCAR-3 ovarian
HL-60(TB) leukemia = tested on: HL-60(TB) leukemia
HOP-62 NSCLC = tested on: HOP-62 NSCLC
A549 NSCLC = tested on: A549 NSCLC
MDA-MB-231 breast = tested on: MDA-MB-231 breast
COLO 205 colon = tested on: COLO 205 colon
HCT-116 colon = tested on: HCT-116 colon
EKVX NSCLC = tested on: EKVX NSCLC
MDA-MB-435 = tested on: MDA-MB-435
CCRF-CEM leukemia = tested on: CCRF-CEM leukemia

Work on `NC(=O)Nc1cc([As](=O)(O)O)cc(I)c1O` yielded a GI50 (SK-MEL-5 melanoma) greater than 100 µM, a TGI (SK-MEL-5 melanoma) greater than 100 µM and a GI50 (RPMI-8226 leukemia) greater than 100 µM. For the same compound, the TGI (RPMI-8226 leukemia) was greater than 100 µM, the GI50 (786-0 renal) was greater than 100 µM and the TGI (786-0 renal) was greater than 100 µM. It also gave a GI50 (IGROV1 ovarian) greater than 100 µM, a TGI (IGROV1 ovarian) greater than 100 µM and a GI50 (NCI-H522 lung) greater than 100 µM. The TGI (NCI-H522 lung) was greater than 100 µM, the GI50 (SW-620 colon) was greater than 100 µM and the TGI (SW-620 colon) was greater than 100 µM. For the same compound, the GI50 (U251 CNS) was greater than 100 µM, the TGI (U251 CNS) was greater than 100 µM and the GI50 (MALME-3M melanoma) was greater than 100 µM. It also gave a TGI (MALME-3M melanoma) greater than 100 µM, a GI50 (K-562 leukemia) greater than 100 µM and a TGI (K-562 leukemia) greater than 100 µM. For the same compound, the GI50 (SK-MEL-2 melanoma) was greater than 100 µM, the TGI (SK-MEL-2 melanoma) was greater than 100 µM and the GI50 (T-47D breast) was greater than 100 µM. For the same compound, the TGI (T-47D breast) was greater than 100 µM, the GI50 (DU-145 prostate) was greater than 100 µM and the TGI (DU-145 prostate) was greater than 100 µM. For the same compound, the GI50 (UACC-62 melanoma) was greater than 100 µM, the TGI (UACC-62 melanoma) was greater than 100 µM and the GI50 (NCI-H23 lung) was greater than 100 µM. For the same compound, the TGI (NCI-H23 lung) was greater than 100 µM, the GI50 (MCF7 breast) was greater than 100 µM and the TGI (MCF7 breast) was greater than 100 µM. The GI50 (NCI-H322M lung) was greater than 100 µM, the TGI (NCI-H322M lung) was greater than 100 µM and the GI50 (CAKI-1 renal) was greater than 100 µM. The TGI (CAKI-1 renal) was greater than 100 µM, the GI50 (OVCAR-8 ovarian) was greater than 100 µM and the TGI (OVCAR-8 ovarian) was greater than 100 µM. It also gave a GI50 (ACHN renal) greater than 100 µM, a TGI (ACHN renal) greater than 100 µM and a GI50 (LOX IMVI melanoma) greater than 100 µM. For the same compound, the TGI (LOX IMVI melanoma) was greater than 100 µM, the GI50 (OVCAR-3 ovarian) was greater than 100 µM and the TGI (OVCAR-3 ovarian) was greater than 100 µM. The GI50 (HL-60(TB) leukemia) was greater than 100 µM, the TGI (HL-60(TB) leukemia) was greater than 100 µM and the GI50 (HOP-62 NSCLC) was greater than 100 µM. It also gave a TGI (HOP-62 NSCLC) greater than 100 µM, a GI50 (A549 NSCLC) greater than 100 µM and a TGI (A549 NSCLC) greater than 100 µM. For the same compound, the GI50 (MDA-MB-231 breast) was greater than 100 µM, the TGI (MDA-MB-231 breast) was greater than 100 µM and the GI50 (COLO 205 colon) was greater than 100 µM. It also gave a TGI (COLO 205 colon) greater than 100 µM, a GI50 (HCT-116 colon) greater than 100 µM and a TGI (HCT-116 colon) greater than 100 µM. For the same compound, the GI50 (EKVX NSCLC) was greater than 100 µM, the TGI (EKVX NSCLC) was greater than 100 µM and the GI50 (MDA-MB-435) was greater than 100 µM. For the same compound, the TGI (MDA-MB-435) was greater than 100 µM and the GI50 (CCRF-CEM leukemia) was greater than 100 µM.
